# Compounds with a hit are over-represented: about 16% of the library has one in this group of screens.
# TDP1 cell noCPT: qHTS for Inhibitors of human tyrosyl-DNA phosphodiesterase 1 (TDP1): qHTS in cells in absence of CPT; DT40 Tdp1-/- hTDP1 cells, no CPT, ATP luminescence, 48 h; Potency, µM (series often up to 46.2 µM), inactives show top-dose activity change, negative = growth inhibition, most hits filed as inhibitors; actives 15% (n = 420,000); note: potency is the fitted concentration of half-maximal effect; % is set by controls: 0 for no effect and ±100 for the full control effect; nearly all actives have a fitted effect of over 55% in size
#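 Chicken DT40 Tdp1-/- cells complemented with human TDP1, screened without camptothecin (DMSO vehicle only), 400 cells/well. Compounds pin-transferred, cells incubated at 37 °C for at least 48 hr. Growth read as ATP-dependent luminescence (CellTiter-Glo, 30 min at RT).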
# uPA surface inh: cell surface uPA generation inhibition | cell surface uPA generation assay, qHTS | Potency, µM (titrated, usually from 38.3 µM), for inactives: at the top dose activity change, negative = inhibition, usual class: inhibitors | actives 0.31% (n = 330,000); active = well fitted inhibition curve with a large enough effect; inconclusive = small, poorly fitted or top-dose-only effect; inactive = no such curve, though single readings can be large or run the other way; tested in mouse RAW 264.7 cells; note: potency is the fitted concentration of half-maximal effect; % is set by controls: 0 for no effect and ±100 for the full control effect; nearly all actives have a fitted effect of over 55% in size
# miR-21 FLuc: raises the signal of a miR-21 reporter | AID 2288 | 340,000 tested, under 10 active | Potency, µM (series often up to 38.3 µM), without a hit: at the highest dose reporter change, positive = more light | HeLa miR-21 FLuc reporter, luciferase, 48 h; active = well fitted rising curve with a large enough effect; inconclusive = small, poorly fitted or top-dose-only effect; inactive = no such curve, though single readings can be large or run the other way;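 further: % of control where 0% means no effect; miR-21 action dims this reporter so a rising signal means less miR-21 action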
#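 Luminescence from a firefly luciferase reporter carrying a miR-21 binding site downstream, stably expressed under a CMV promoter in HeLa cells that make miR-21 endogenously, reports miRNA modulation after 48 h compound exposure up to approximately 40uM final.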
# TDP1 cell CPT: growth inhibition of DT40 Tdp1-/-;hTDP1 cells with camptothecin (screen for TDP1 inhibitors); chicken DT40 Tdp1-/-;hTDP1 cells + 20 nM CPT, ATP luminescence, 48 h; Potency, µM (top dose mostly 46.2 µM), for inactives: at the highest dose activity change, negative = growth inhibition, actives largely listed as inhibitors; actives 12% (n = 420,000); AID 686979; note: potency is the fitted concentration of half-maximal effect; % is set by controls: 0 for no effect and ±100 for the full control effect; nearly all actives have a fitted effect of over 55% in size
#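 Chicken DT40 Tdp1-/- cells stably complemented with human TDP1 were seeded at 400 cells/well in medium containing 20 nM camptothecin, exposed to pin-transferred compounds, and grown at 37 °C for at least 48 hr. Viability was read as ATP luminescence.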
# TDP1 inh: inhibitors of human tyrosyl-DNA phosphodiesterase TDP1; Potency, µM (highest dose often 130 µM), for inactives: at the top dose activity change, negative = inhibition, actives largely listed as inhibitors; recombinant TDP1, AlphaScreen DNA substrate cleavage; Q9NUW8; actives 0.28% (n = 350,000); AID 485290; note: potency is the fitted concentration of half-maximal effect; % is set by controls: 0 for no effect and ±100 for the full control effect; nearly all actives have a fitted effect of over 40% in size
#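 Here, a 5' biotin and 3' phosphotyrosine-FITC DNA oligonucleotide reports Tdp1 activity: intact substrate bridges AlphaScreen beads, while cleavage leaves a 3' phosphate and drops signal. All incubations at room temperature.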
# Numbers without * were called inactive; ? = inconclusive; . = not tested or not shown; [ ] = dose if it differs, or a comment. Unless noted, calls come from the whole dose curve; as a rule, active = well fitted curve in the direction sought with a large enough effect; inconclusive = small, poorly fitted or top-dose-only effect, or another doubt; inactive = no such curve, though single readings can be large; an effect the other way counts as inactive or inconclusive.
(1) Cc1nn(Cc2ccccc2)c(C)c1NC(=O)c1noc2c1CCc1ccccc1-2
(2) COc1ccc2c(c1)CCc1c(C(=O)Nc3c(C)nn(Cc4ccc(C)cc4)c3C)noc1-2
(3) CCC(=O)Nc1cccc2ccccc12
(4) CCCN1C(=O)SC(CC(=O)Nc2cccc3ccccc23)C1=O (stereo unspecified)
(5) CCCN1C(=O)SC(CC(=O)Nc2ccccc2)C1=O (stereo unspecified)
(6) O=C(Nc1ccccc1-c1nnc(SCc2ccccc2Cl)o1)c1ccccc1

screen / no. | 1 | 2 | 3 | 4 | 5 | 6
TDP1 cell noCPT | ? | 9.2µM* | -16% | 16µM* | ? | ?
uPA surface inh | -5% | . | 0% | -4% | -1% | .
miR-21 FLuc | 11% | ? | -4% | -4% | 1% | -2%
TDP1 cell CPT | ? | 10µM* | 20% | 16µM* | 23µM* | ?
TDP1 inh | 5% | 5% | 0% | 4%[56.1 µM] | 2% | -3%

# Compounds 4 through 6, reprinted for reference:
(4) CCCN1C(=O)SC(CC(=O)Nc2cccc3ccccc23)C1=O (stereo unspecified)
(5) CCCN1C(=O)SC(CC(=O)Nc2ccccc2)C1=O (stereo unspecified)
(6) O=C(Nc1ccccc1-c1nnc(SCc2ccccc2Cl)o1)c1ccccc1

screen / no. | 4 | 5 | 6
TDP1 cell noCPT | 16µM* | ? | ?
uPA surface inh | -4% | -1% | .
miR-21 FLuc | -4% | 1% | -2%
TDP1 cell CPT | 16µM* | 23µM* | ?
TDP1 inh | 4%[56.1 µM] | 2% | -3%

# Back to the main list with the 2 entries that preceded the break.
(5) CCCN1C(=O)SC(CC(=O)Nc2ccccc2)C1=O (stereo unspecified)
(6) O=C(Nc1ccccc1-c1nnc(SCc2ccccc2Cl)o1)c1ccccc1
(7) OCCNc1nc(Nc2ccc(Cl)cc2)nc(N2CCCC2)n1
(8) COc1ccc(Nc2nc(NCCO)nc(N3CCCC3)n2)cc1
(9) CCCNc1nc(Nc2ccc(C)cc2)nc(N2CCCC2)n1
(10) O=[N+]([O-])c1ccc(Nc2nc(NCCO)nc(N3CCCC3)n2)cc1
(11) O=[N+]([O-])c1cc(CN2CCCCCC2)ccc1O
(12) CC(=O)c1ccc(-c2[nH]c3ccccc3c2CCN2C(=O)c3ccccc3C2=O)cc1

screen / no. | 5 | 6 | 7 | 8 | 9 | 10 | 11 | 12
TDP1 cell noCPT | ? | ? | . | . | 21µM* | 21µM* | -11% | ?
uPA surface inh | -1% | . | 3% | -12% | -1% | -1% | -5% | 19%
miR-21 FLuc | 1% | -2% | . | . | 7% | -9% | -1% | .
TDP1 cell CPT | 23µM* | ? | . | . | 23µM* | ? | 6% | ?
TDP1 inh | 2% | -3% | . | . | 4% | -8% | . | .

(13) O=C1c2ccccc2C(=O)N1CCCCCCc1ccccc1
(14) O=C1c2ccccc2C(=O)N1CCc1c(-c2[nH]c3ccccc3c2CCN2C(=O)c3ccccc3C2=O)[nH]c2ccccc12
(15) O=C1c2ccccc2C(=O)N1CCc1c(-c2ccccc2)[nH]c2ccccc12
(16) CC(=O)N1CCC(C(=O)Nc2ccc3c(c2)CCC3)CC1
(17) COc1ccccc1C(C)NS(=O)(=O)c1cccs1 (stereo unspecified)
(18) COc1ccc(C2(c3ccc(OC)cc3)NC(=O)N(CC(=O)Nc3ccccc3C(F)(F)F)C2=O)cc1

screen / no. | 13 | 14 | 15 | 16 | 17 | 18
TDP1 cell noCPT | -1% | 18µM* | 15µM* | 11% | . | -25%
uPA surface inh | 5% | -4% | 17% | -12% | . | 11%
miR-21 FLuc | . | . | . | -4% | 0% | 9%
TDP1 cell CPT | -5% | 21µM* | ? | 10% | . | -8%
TDP1 inh | 35µM* | . | . | 2% | 8% | 4%

(19) CNC[C@@H]1Oc2c(NC(=O)Nc3ccccc3)cccc2C(=O)N([C@@H](C)CO)C[C@H]1C
(20) Cc1ccsc1C(=O)C1CCCN(Cc2cn(C)nc2-c2ccccc2)C1 (stereo unspecified)
(21) Cc1ncoc1C(=O)N1CCCC(C(=O)c2ccc(-c3ccccc3)cc2)C1 (stereo unspecified)
(22) CN(C)S(=O)(=O)N1CCCC(C(=O)c2ccc(-c3ccccc3)cc2)C1 (stereo unspecified)
(23) Cn1cc(CN2CCCC(C(=O)c3cccs3)C2)c(-c2cccc(Cl)c2)n1 (stereo unspecified)
(24) O=C(c1ccc(-c2ccccc2)cc1)C1CCCN(C(=O)c2ccncc2)C1 (stereo unspecified)

screen / no. | 19 | 20 | 21 | 22 | 23 | 24
TDP1 cell noCPT | -12% | ? | 23µM* | 23µM* | 16µM* | ?
uPA surface inh | -4% | -1% | 3% | . | -3% | -7%
miR-21 FLuc | . | 4% | 0% | 3% | -1% | -1%
TDP1 cell CPT | -3% | ? | 18µM* | ? | ? | 3.7µM*
TDP1 inh | -5% | 5% | 5% | -2% | 5% | 3%

(25) Cc1cc(C)cc(NC(=O)CSc2nncn2-c2ccccn2)c1
(26) Cn1nnnc1SCC(=O)NCc1cc([N+](=O)[O-])ccc1O
(27) O=C(c1ccc(-c2ccccc2)cc1)C1CCCN(Cc2ccncc2)C1 (stereo unspecified)
(28) O=C(c1ccc(Cl)cc1)C1CCCN(Cc2cnn(-c3ccccc3)c2)C1 (stereo unspecified)
(29) Cc1nn(C)cc1CN1CCCC(C(=O)c2ccc(-c3ccccc3)cc2)C1 (stereo unspecified)
(30) ClC1=CN(C2=NCCC2)CC1

screen / no. | 25 | 26 | 27 | 28 | 29 | 30
TDP1 cell noCPT | -14% | -15% | ? | ? | 21µM* | -6%
uPA surface inh | 1% | 0% | -5% | -2% | -5% | .
miR-21 FLuc | 1% | 0% | -42% | 2% | 0% | .
TDP1 cell CPT | -8% | -1% | 16µM* | ? | ? | 0%
TDP1 inh | -4% | -4% | 6% | . | 0% | .

(31) Cc1ccc(NC(=O)C2Oc3ccccc3OC2C)cc1 (stereo unspecified)
(32) O=C1CN=C(Nc2ccccc2)N1Cc1cccs1
(33) COc1cnc(-c2cccc(C(F)(F)F)c2)c(NC(=O)c2cc3ccccc3s2)n1
(34) Cc1cccc(N2CCN(C(c3ccc(F)cc3)c3nnc(-c4ccccc4)o3)CC2)c1C (stereo unspecified)
(35) CCCCCCCCCCCCCC[C@@H](O)[C@@H](O)[C@H](CO)NC(C)=O
(36) O=C(NNC1CC(=O)N(c2ccc(Cl)cc2)C1=O)c1ccccc1Cl (stereo unspecified)

screen / no. | 31 | 32 | 33 | 34 | 35 | 36
TDP1 cell noCPT | -16% | 0% | 10µM* | 16µM* | . | 2%
uPA surface inh | 12% | 5% | . | . | . | -2%
miR-21 FLuc | -19% | -5% | . | 0% | . | -3%
TDP1 cell CPT | -24% | 1% | 18µM* | ? | . | 3%
TDP1 inh | 1% | 6% | . | 2% | 9% | -3%

(37) Cc1ccccc1OCC(=O)N/N=C/c1ccc([N+](=O)[O-])o1
(38) Cc1ccc(OCC(=O)N/N=C/C=C/c2ccco2)cc1
(39) O=C(COc1ccccc1[N+](=O)[O-])N/N=C/C=C/c1ccco1
(40) Cc1cc(C)cc(OCC(=O)N/N=C/c2ccc([N+](=O)[O-])o2)c1
(41) COc1ccccc1OCC(=O)N/N=C/C=C/c1ccc([N+](=O)[O-])o1
(42) Cc1ccccc1OCC(=O)N/N=C/C=C/c1ccccc1

screen / no. | 37 | 38 | 39 | 40 | 41 | 42
TDP1 cell noCPT | 8.2µM* | 7.3µM* | ? | ? | 7.3µM* | -10%
uPA surface inh | ? | -4% | 1% | . | -10% | 0%
miR-21 FLuc | ? | 0% | -32% | 26% | 28% | 1%
TDP1 cell CPT | 10µM* | 8.2µM* | -25% | -89% | 6.5µM* | -20%
TDP1 inh | ? | 7% | 2% | -2% | 7% | -2%

(43) COCC(C)n1c(SCC(=O)Nc2nccs2)nc2ccccc2c1=O (stereo unspecified)
(44) COc1ccc(Nc2n[nH]c(N)c2C(N)=O)cc1
(45) Cc1cc(N(C)Cc2ccccc2)nc2cc(O)ccc12
(46) Cc1cc(N(C)Cc2ccccc2)nc(-c2ccccc2)n1
(47) O=C(c1ccccc1F)n1c2c(c3ccccc31)CCCC2
(48) COCc1nnc(NS(=O)(=O)c2ccc(F)cc2)s1

screen / no. | 43 | 44 | 45 | 46 | 47 | 48
TDP1 cell noCPT | -27% | -11% | ? | 26µM* | ? | 7%
uPA surface inh | 7% | -1% | -4% | -9% | ? | -1%
miR-21 FLuc | . | -9% | -26% | 14% | 17% | 3%
TDP1 cell CPT | -18% | -11% | 7% | ? | 23µM* | 7%
TDP1 inh | 2% | -1% | . | -11% | . | .
